Reference: PubChem BioAssay AID631 (The Scripps Research Institute Molecular Screening Center, 2007)
This is a selection; strong and weak results do not stand in their true shares. Active and inactive are the calls of the source. Cut-off read from the data, not from the text of the source: active = activation above about 19%; inactive = the rest.

The chains behind the UniProt entries cited, without tags or fusion partners. Residues count along the entry.
UniProt P37231, 232-505 limits assumed: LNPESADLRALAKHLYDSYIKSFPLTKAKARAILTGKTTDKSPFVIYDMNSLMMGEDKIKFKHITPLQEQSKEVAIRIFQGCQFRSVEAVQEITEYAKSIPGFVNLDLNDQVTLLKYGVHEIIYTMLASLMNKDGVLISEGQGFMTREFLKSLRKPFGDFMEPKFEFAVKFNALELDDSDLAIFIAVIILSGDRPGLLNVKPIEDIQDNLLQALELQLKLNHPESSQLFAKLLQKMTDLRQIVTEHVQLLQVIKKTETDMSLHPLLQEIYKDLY
UniProt Q15788, whole entry partner: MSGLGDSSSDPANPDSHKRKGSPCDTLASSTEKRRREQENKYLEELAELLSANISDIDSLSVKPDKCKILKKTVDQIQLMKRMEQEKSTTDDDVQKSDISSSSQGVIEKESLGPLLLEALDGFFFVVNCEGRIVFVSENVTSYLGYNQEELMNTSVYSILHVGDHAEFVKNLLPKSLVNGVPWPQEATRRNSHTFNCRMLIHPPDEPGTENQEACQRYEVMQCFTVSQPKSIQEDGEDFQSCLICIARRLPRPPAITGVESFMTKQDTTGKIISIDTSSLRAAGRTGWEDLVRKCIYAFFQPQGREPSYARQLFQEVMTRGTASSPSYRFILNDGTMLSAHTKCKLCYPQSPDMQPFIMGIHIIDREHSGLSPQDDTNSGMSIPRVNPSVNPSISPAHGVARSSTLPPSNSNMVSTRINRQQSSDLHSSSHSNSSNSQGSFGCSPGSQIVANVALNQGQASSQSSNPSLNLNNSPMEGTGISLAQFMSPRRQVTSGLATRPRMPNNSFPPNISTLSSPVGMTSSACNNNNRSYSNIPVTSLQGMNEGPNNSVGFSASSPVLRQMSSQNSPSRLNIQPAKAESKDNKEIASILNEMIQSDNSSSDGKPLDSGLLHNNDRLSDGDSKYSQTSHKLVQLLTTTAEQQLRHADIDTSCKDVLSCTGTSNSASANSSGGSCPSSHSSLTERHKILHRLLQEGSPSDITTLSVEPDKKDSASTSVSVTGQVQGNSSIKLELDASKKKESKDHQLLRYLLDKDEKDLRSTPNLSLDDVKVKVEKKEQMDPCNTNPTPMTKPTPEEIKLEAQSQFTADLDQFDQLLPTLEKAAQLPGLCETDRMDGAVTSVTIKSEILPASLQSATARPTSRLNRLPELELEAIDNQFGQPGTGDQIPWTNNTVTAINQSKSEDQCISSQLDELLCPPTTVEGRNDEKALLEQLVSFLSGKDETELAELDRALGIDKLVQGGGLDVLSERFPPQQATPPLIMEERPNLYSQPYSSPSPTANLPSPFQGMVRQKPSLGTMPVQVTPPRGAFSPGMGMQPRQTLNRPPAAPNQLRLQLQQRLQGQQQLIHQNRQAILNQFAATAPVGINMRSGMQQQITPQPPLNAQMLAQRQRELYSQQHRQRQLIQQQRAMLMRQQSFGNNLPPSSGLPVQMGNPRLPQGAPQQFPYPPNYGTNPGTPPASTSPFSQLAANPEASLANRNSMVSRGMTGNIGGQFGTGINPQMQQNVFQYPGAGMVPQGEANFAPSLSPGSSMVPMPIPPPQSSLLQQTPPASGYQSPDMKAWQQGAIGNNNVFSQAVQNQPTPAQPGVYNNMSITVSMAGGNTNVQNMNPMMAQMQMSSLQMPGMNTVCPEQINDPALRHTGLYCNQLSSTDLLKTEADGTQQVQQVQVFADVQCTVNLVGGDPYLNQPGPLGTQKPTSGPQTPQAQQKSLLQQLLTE

What follows are compounds tested against Peroxisome proliferator-activated receptor gamma (Homo sapiens) (UniProt P37231) (assay: enhancers of SRC-1 binding to PPARgamma – biochemical, primary screen (AID 631;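 note: 0% = DMSO and 100% = reference agonist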)). Settings: PPARgamma-SRC-1 coactivator recruitment biochemical assay; at 8 µM; stronger effect = higher value.

SMILES	activation
CN(C)c1ccc(C(=O)NCC2(N3CCCCC3)CCCCC2)cc1	inactive: 10.4%
CCN1CCC(Nc2cccc(F)c2)CC1	inactive: 12.1%
CCC(CO)(C(=O)OC1CN2CCC1CC2)c1ccccc1 (stereo not given)	inactive: -1.5%
COc1cc(OC)cc(C(=O)NCC2(N3CCOCC3)CCCCC2)c1	inactive: 3.7%
CC(C)(C)OC(=O)N1CCC(Nc2ccccc2)CC1	inactive: 7.2%
CCOc1ncccc1C(=O)NCC1(N2CCOCC2)CCCCC1	inactive: 5.9%
O=C(OC1CN2CCC1CC2)C1c2ccccc2C=Cc2ccccc21 (stereo not given)	inactive: 2.4%
N/C(=N\O)c1c(N)no[n+]1[O-]	active: 22.2%
COc1ccc(C(=O)NCC2(N3CCOCC3)CCCCC2)cc1OC	inactive: 12%
c1ccc(CN2CCC(Nc3ccccc3)CC2)cc1	inactive: 2.5%
N#Cc1ccc(C(=O)NCC2(N3CCCCC3)CCCCC2)cc1	inactive: -0.8%
CN1CCN(CCOC(=O)C(O)(c2ccccc2)c2ccccc2)CC1	inactive: 2.7%
COc1ccc(NC2CCN(C(=O)OC(C)(C)C)CC2)cc1	inactive: -5.4%
O=C(NCC1(N2CCOCC2)CCCCC1)c1cc(=O)[nH]c2ccccc12	inactive: 5.3%
O=C(NCC1(N2CCCCC2)CCCCC1)c1cccc([N+](=O)[O-])c1	inactive: 6.5%
N#CC1(Nc2ccccc2)CCN(CCc2ccccc2)CC1	inactive: -0.6%
CN1CCC(Nc2cccc(F)c2)CC1	inactive: -1.2%
CN(C)c1cccc(C(=O)NCC2(N3CCCCC3)CCCCC2)c1	inactive: -3.4%
COc1ccc(CN(CCCl)CCCl)cc1Cl	inactive: -2.7%
CC(C)c1ccc(NC2CCN(C(=O)OC(C)(C)C)CC2)cc1	inactive: -7.9%
CCOC(=O)N1CCC(Nc2ccc(OC)cc2)CC1	inactive: 0.4%
O=C(OC1CN2CCC1CC2)C1c2ccccc2Oc2ccccc21 (stereo not given)	inactive: -2%
O=C(NCC1(N2CCOCC2)CCCCC1)c1cc2ccccc2o1	inactive: -6.5%
COc1ccc(C(=O)NCC2(N3CCCCC3)CCCCC2)c(OC)c1OC	inactive: 9.5%
COc1ccc(NC2CCN(CCc3ccccc3)CC2)c(OC)c1	inactive: 10.3%
